Test system: Glycine max
Assay: Inhibition of soybean LOX assessed as conversion of sodium linoleate to 13- hydroperoxylinoleic acid at 100 uM
Summary of the method: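 Compound in DMSO incubated at room temperature with sodium linoleate (0.1 ml) and soybean LOX solution (0.2 ml) in saline. Conversion to 13-hydroperoxylinoleic acid recorded at 234 nm and compared with a standard inhibitor. At least triplicate.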

inhibition: 84%
Structure (SMILES): CC(Cc1ccc(O)c(O)c1)C(C)Cc1ccc(O)c(O)c1 (stereo unspecified)
